We go through one compound from BindingDB's records for doi:10.1016/s0024-3205(03)00272-8 (Merck Research Laboratories, 2003).

One may read the Ki as the dissociation constant of the complex between target and ligand, obtained from inhibition or displacement. The low end stands for tighter binding, the high end for weaker binding.

This experiment has as its target T1, Alpha-1A adrenergic receptor (Rattus norvegicus, UniProt P43140).
T1 sequence (P43140 whole entry): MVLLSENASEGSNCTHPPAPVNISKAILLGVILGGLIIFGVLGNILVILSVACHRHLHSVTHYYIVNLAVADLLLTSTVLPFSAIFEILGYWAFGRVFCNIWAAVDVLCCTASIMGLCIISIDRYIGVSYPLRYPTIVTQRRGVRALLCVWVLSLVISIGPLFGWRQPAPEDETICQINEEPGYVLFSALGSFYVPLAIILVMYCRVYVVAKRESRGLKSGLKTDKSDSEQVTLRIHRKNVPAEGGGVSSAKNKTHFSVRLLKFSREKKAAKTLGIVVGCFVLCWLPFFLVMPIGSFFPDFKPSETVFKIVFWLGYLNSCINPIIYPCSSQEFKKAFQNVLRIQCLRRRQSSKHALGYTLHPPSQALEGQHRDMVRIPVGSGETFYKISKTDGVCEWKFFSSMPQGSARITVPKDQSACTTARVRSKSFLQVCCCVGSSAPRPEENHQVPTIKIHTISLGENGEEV

On to `COC(=O)C1C(O)CCC2CN3CCc4c([nH]c5ccccc45)C3CC21` (stereo unspecified) [NSC_2866], for which affinity was put at a Ki of 7.6 µM.
